Assay results taken from patent US20050131051A1, “2-3-disubstituted quinuclidiness as modulators of monoamine transporters and theraperutic and diagnostic methods based thereon” (priority 2000, published 2005).

Chains of the proteins cited; added tags and fusions are not shown. Residues count along the entry.
UniProt Q63380, 1-617: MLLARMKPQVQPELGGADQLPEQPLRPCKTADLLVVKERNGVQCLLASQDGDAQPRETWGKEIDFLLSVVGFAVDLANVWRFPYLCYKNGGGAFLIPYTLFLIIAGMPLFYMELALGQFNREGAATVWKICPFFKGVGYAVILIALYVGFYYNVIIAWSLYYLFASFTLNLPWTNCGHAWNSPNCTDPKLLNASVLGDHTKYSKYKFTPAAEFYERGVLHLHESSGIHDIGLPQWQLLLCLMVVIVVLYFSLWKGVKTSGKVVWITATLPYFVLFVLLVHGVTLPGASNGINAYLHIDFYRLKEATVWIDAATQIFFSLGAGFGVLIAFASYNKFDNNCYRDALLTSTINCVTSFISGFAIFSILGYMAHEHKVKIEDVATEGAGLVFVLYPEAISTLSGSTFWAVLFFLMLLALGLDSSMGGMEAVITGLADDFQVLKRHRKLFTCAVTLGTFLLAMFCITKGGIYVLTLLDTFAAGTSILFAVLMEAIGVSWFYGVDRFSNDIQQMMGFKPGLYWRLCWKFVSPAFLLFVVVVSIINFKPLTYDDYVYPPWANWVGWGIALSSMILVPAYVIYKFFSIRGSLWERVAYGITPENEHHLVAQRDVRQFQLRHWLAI

Biological target: T1, norepinephrine transporter (Rattus norvegicus, UniProt Q63380)
T1 construct: using synaptosomes prepared from rat midbrain and parietal/occipital cortex, respectively; from tissue; host or cells: rat parietal/occipital cortex synaptosomes
Experiment: Synaptosomal uptake of [3H]NE
Assay type: biochemical
Settings: Ki (nM) NE, synaptosomes from rat parietal/occipital cortex; mean ± standard error or range of 2-3 experiments
Experimental: IC50 values were determined by a computer assisted, iterative fit to a four-parameter sigmoidal equation (ALLFIT). These values were then converted to Ki values according to the Cheng-Prusoff equation assuming classical competitive inhibition. Preincubation of the drug and synaptosomes at 37° C. for 30 min was used to approximate equilibrium conditions as necessary to satisfy the requirements of the Cheng-Prusoff equation.
The effect of candidate compounds in antagonizing dopamine high-affinity uptake was determined using a method previously employed. For [^3H]DA uptake, dissected rat striata were homogenized with a Teflon-glass pestle in ice-cold 0.32 M sucrose and centrifuged for 10 mm at 1000×g. The supernatant was centrifuged at 17,500×g for 20 mm. This P2 synaptosomal pellet was resuspended in 30 volumes of ice-cold modified KRH buffer. An aliquot of the synaptosomal suspension was preincubated with the buffer and drug for 30 mm at 37° C., and uptake initiated by the addition of [^3H]dopamine (5 nM, final conc.). After 5 mm, uptake was terminated by adding 5 ml of cold buffer containing glucosamine as a substitute for NaCl and then finally by rapid vacuum filtration over GF-C glass fiber filters, followed by washing with two 5 ml volumes of ice-cold, sodium-free buffer. Radioactivity retained on the filters was determined by liquid scintillation spectrometry. […]

COC(=O)[C@H]1[C@@H](OC(=O)c2ccccc2)C[C@@H]2CC[C@H]1N2C [R-cocaine (1), cocaine, reference compound]
Ki: 108 ± 4 nM
